We go through one molecule from BindingDB's records for patent US9694016 (Novartis AG, 2017).

Sequences of proteins named here, by UniProt entry; tags and fusion partners are left off.
UniProt P04049, whole entry Y340E/Y341E: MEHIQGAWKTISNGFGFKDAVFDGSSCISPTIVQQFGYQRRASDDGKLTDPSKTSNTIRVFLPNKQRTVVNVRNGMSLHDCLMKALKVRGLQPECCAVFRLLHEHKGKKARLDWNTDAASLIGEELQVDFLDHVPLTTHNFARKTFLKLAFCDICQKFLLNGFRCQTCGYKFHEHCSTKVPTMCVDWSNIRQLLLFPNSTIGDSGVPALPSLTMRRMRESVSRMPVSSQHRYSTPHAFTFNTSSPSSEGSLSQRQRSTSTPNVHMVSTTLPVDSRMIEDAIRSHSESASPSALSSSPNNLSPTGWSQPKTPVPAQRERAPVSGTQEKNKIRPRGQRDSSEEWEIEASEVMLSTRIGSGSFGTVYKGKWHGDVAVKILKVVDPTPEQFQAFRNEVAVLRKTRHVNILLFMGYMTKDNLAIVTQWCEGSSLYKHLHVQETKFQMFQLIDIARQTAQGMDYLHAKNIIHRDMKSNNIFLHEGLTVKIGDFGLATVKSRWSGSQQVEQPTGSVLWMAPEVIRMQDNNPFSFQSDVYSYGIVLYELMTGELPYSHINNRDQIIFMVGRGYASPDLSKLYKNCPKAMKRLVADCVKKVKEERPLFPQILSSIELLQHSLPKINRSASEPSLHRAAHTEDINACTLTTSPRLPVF

The target of the experiment is RAF proto-oncogene serine/threonine-protein kinase [Y340E,Y341E] (Human, UniProt P04049, Y340E/Y341E). Nature of the experiment: Raf Activity Assay. The following applies: pH 7.5; 25 °C.

What is called IC50 is the concentration needed to halve the response being measured. A higher IC50 goes with weaker potency. Take `Cc1ncc(NC(=O)c2cccc(C(F)(F)F)c2)cc1-c1c[nH]c(=O)c(N2CCOCC2)c1` [US9694016, 988]: 0.97 nM corresponded to half-maximal inhibition (IC50).
